# Earlier results in US20130165771A1 (priority 2011, published 2013).
# Settings: cited from earlier work
substance,measurement,value
fluorescein isothiocyanate dextran [FITC-Dextran],stability in vivo,at least 24 hours
